From PubChem
TDP1 inh – inhibitors of human tyrosyl-DNA phosphodiesterase TDP1 | recombinant TDP1, AlphaScreen DNA substrate cleavage | 350,000 tested, 0.28% active | Potency, µM (series often up to 130 µM), without a hit: at the highest dose activity change, negative = inhibition, hits mostly inhibitors | AID 485290; also: potency is read from the fitted curve at half-maximal effect; % is scaled to controls: 0 for no effect and ±100 for the full control effect; nearly all actives have a fitted effect of over 40% in size
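AlphaScreen read-out: signal falls as enzyme removes the 3' tyrosine-FITC from a 5'-biotinylated DNA oligo (15 nM, 5 min, RT). Enzyme was E. coli-made recombinant Tdp1 at 1 nM, exposed to compound for 15 min beforehand; beads 10 ug/ml, 10 min.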
DT40 TDP1 no CPT – qHTS for Inhibitors of human tyrosyl-DNA phosphodiesterase 1 (TDP1): qHTS in cells in absence of CPT; DT40 Tdp1-/- hTDP1 cells, no CPT, ATP luminescence, 48 h; 420,000 tested, 15% active; AID 686978, 2013; Potency, µM (doses to about 46.2 µM), for inactives: at the top dose activity change, negative = growth inhibition, hits mostly inhibitors; also: potency is read from the fitted curve at half-maximal effect; % is scaled to controls: 0 for no effect and ±100 for the full control effect; nearly all actives have a fitted effect of over 55% in size
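A cellular qHTS used chicken DT40 cells lacking endogenous Tdp1 but carrying stably transfected human TDP1. Compounds were applied without camptothecin, and cell growth kinetics were judged by ATP-dependent luminescence after ≥48 hr.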
uPA generation – blocks generation of uPA at the cell surface; cell surface uPA generation assay, qHTS; Potency, µM (top dose mostly 38.3 µM), for the others: top-dose activity change, negative = inhibition, hits mostly inhibitors; 330,000 tested, 0.31% active; active = well fitted inhibition curve with a large enough effect; inconclusive = small, poorly fitted or top-dose-only effect; inactive = no such curve, though single readings can be large or run the other way; tested in mouse RAW 264.7 cells; also: potency is read from the fitted curve at half-maximal effect; % is scaled to controls: 0 for no effect and ±100 for the full control effect; nearly all actives have a fitted effect of over 55% in size
miR-21 FLuc – miR-21 reporter, rising signal; Potency, µM (titrated, usually from 38.3 µM), without a hit: at the highest dose reporter change, positive = more light; AID 2288; 340,000 tested, under 10 active; HeLa miR-21 FLuc reporter, luciferase, 48 h; active = well fitted rising curve with a large enough effect; inconclusive = small, poorly fitted or top-dose-only effect; inactive = no such curve, though single readings can be large or run the other way;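 note: % of control where 0% means no effect; miR-21 action dims this reporter so a rising signal means less miR-21 action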
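Compounds were titrated across several concentrations (up to approximately 40 uM) and incubated 48 hours with HeLa miR-21-FLuc reporter cells (miR-21 target sequence downstream of FLuc, endogenous miR-21). Readout was firefly luciferase luminescence after lytic detection reagent.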
TDP1 cell CPT – growth inhibition of DT40 Tdp1-/-;hTDP1 cells with camptothecin (screen for TDP1 inhibitors); chicken DT40 Tdp1-/-;hTDP1 cells + 20 nM CPT, ATP luminescence, 48 h; Potency, µM (titrated, usually from 46.2 µM), inactives show at the highest dose activity change, negative = growth inhibition, actives largely listed as inhibitors; 420,000 tested, 12% active; AID 686979; also: potency is read from the fitted curve at half-maximal effect; % is scaled to controls: 0 for no effect and ±100 for the full control effect; nearly all actives have a fitted effect of over 55% in size
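Chicken DT40 Tdp1-/- cells stably complemented with human TDP1 were seeded at 400 cells/well in medium containing 20 nM camptothecin, exposed to pin-transferred compounds, and grown at 37 °C for at least 48 hr. Viability was read as ATP luminescence.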
* hit, by the source's call; ? = inconclusive; nt = no result; [ ] = remark or other dose. Shown are actives, neighbours in structure and some others; about 16% of the full set was active somewhere. Unless noted, calls follow the shape of the dose curve; as a rule, active = well fitted curve in the direction sought with a large enough effect; inconclusive = small, poorly fitted or top-dose-only effect, or another doubt; inactive = no such curve, though single readings can be large; an effect the other way counts as inactive or inconclusive.

nr	Molecule	TDP1 inh	DT40 TDP1 no CPT	uPA generation
1	COc1ccccc1CCC(=O)Nc1ccc2c(c1)CN(CCCn1cccn1)CC2	3.3%	-6.2%	5.9%
2	COCCOC(=O)c1c(C)oc2c1cc(NS(=O)(=O)c1ccc(Cl)c(C)c1)c1ccccc12	nt	23.1µM*	nt
3	CCOc1ccc(S(=O)(=O)Nc2cc3c(C(=O)OCc4ccccc4)c(C)oc3c3ccccc23)cc1	nt	29.1µM*	nt
4	Cc1oc2c(cc(NS(=O)(=O)c3ccc(Cl)cc3)c3ccccc32)c1C(=O)O	-8.0%	-9.6%	0.4%
5	COC(=O)c1c(C)oc2c1cc(NS(=O)(=O)c1cccs1)c1ccccc12	5.6%	-22.2%	-1.9%
6	Cc1oc2c(cc(NS(=O)(=O)c3ccc(C(C)C)cc3)c3ccccc32)c1C(=O)OCc1ccccc1	nt	?	nt
7	CCCCOC(=O)c1c(C)oc2c1cc(NS(=O)(=O)c1cc(OC)ccc1OC)c1ccccc12	7.4%	20.6µM*	nt
8	CCOC(=O)c1c(C)oc2c1cc(NS(=O)(=O)c1ccc(C(=O)O)cc1)c1ccccc12	10.8%	-29.9%	0.6%

nr	miR-21 FLuc	TDP1 cell CPT
1	-5.8%	-22.2%
2	26.1%	?
3	-6.8%	11.6µM*
4	-3.7%	?
5	0.8%	-23.5%
6	-2.7%	20.6µM*
7	-3.0%	?
8	-15.6%	-8.9%

Next part:
nr	Molecule	TDP1 inh	DT40 TDP1 no CPT	uPA generation
9	Cc1ccc(Cl)cc1NC(=O)c1cccc(NC(=O)N2CCSc3ncccc32)c1	2.8%	-95.8%	nt
10	O=C1C2C3C=CC(CC3)C2C(=O)N1/N=C/c1c[nH]c2ccccc12 (stereo unspecified)	2.6%	-12.1%	-4.5%
11	CCOC(=O)C1CCN(C/C=C/c2ccccc2OC)CC1	-3.3%	-12.7%	nt
12	COc1cc2ccccc2cc1C(=O)NCc1ccncc1	2.3%	8.4%	2.8%
13	COc1ccc(-c2cnc3c(NC=O)cc(-c4ccc(S(C)(=O)=O)cc4)cn23)cc1OC	nt	2.91µM*	nt
14	COc1cc(S(=O)(=O)N2CCCCC2)ccc1NC=O	7.1%	-2.6%	6.8%
15	COc1ccccc1-c1cc(NC=O)c2ncc(-c3ccc(S(C)(=O)=O)cc3)n2c1	nt	9.2µM*	nt
16	COc1cc(-c2cnc3c(NC=O)cc(-c4ccc(S(C)(=O)=O)cc4)cn23)cc(OC)c1OC	nt	18.4µM*	nt

nr	miR-21 FLuc	TDP1 cell CPT
9	28.0%	-95.9%
10	-48.2%	-3.1%
11	-2.0%	-6.6%
12	-7.9%	12.6%
13	nt	2.91µM*
14	2.3%	-15.3%
15	nt	11.6µM*
16	nt	16.4µM*

Next section.
nr	Molecule	TDP1 inh	DT40 TDP1 no CPT	uPA generation
17	CCOC(=O)Cn1nc(-c2ccccc2)c2cnc3ccc(CC)cc3c21	1.3%	?	-1.6%
18	OCCN1CCN(c2cc(-c3ccc4ccccc4c3)nc3ccnn23)CC1	nt	?	nt
19	COc1ccc(-c2cc(N3CCN(CCO)CC3)n3nccc3n2)cc1	nt	-12.1%	nt
20	CN1CCCN(c2cc(-c3ccc4ccccc4c3)nc3ccnn23)CC1	nt	20.6µM*	nt
21	COc1ccccc1CNc1ccc2nnc(CCNC(=O)c3ccccc3)n2n1	9.2%	?	8.6%
22	CNc1ccnc(-c2ccccc2C)n1	nt	33.0%	nt
23	CCOC(=O)C(O)(NC(=O)c1cccnc1)C(F)(F)F (stereo unspecified)	4.8%	-0.5%	-0.2%
24	CC(=O)C(C(C)=O)C(NC(=O)c1cccnc1)(C(F)(F)F)C(F)(F)F	4.1%	11.6µM*	-1.5%

nr	miR-21 FLuc	TDP1 cell CPT
17	-0.9%	?
18	nt	18.4µM*
19	nt	-6.3%
20	nt	20.6µM*
21	-8.3%	-5.8%
22	nt	2.2%
23	-7.1%	-2.1%
24	1.3%	7.31µM*

(continued)
nr	Molecule	TDP1 inh	DT40 TDP1 no CPT	uPA generation
25	CC(Sc1nc2c(c(=O)[nH]1)CCCC2)C(=O)Nc1ccc(Br)cn1 (stereo unspecified)	39.8µM*	16.4µM*	-0.5%
26	O=C(CC1N=C2c3ccccc3N=C(SCc3ccc(Cl)cc3)N2C1=O)NCc1ccco1 (stereo unspecified)	2.8%	?	-2.0%
27	CCOC(=O)C1CCN(c2c(NCCCN(CC)c3ccccc3)c(=O)c2=O)CC1	6.9%	-26.9%	nt
28	CCN(CCCNc1cc2c(c(N)c1S(=O)(=O)O)C(=O)c1ccccc1C2=O)c1ccccc1	nt	18.4µM*	nt
29	COc1ccc(S(=O)(=O)Nc2cc(C)nn2-c2ccccc2)cc1	1.1%	10.4%	-4.8%
30	CCOC(=O)C1(CCOc2ccccc2)CCN(Cc2cc(OC)c(O)c(OC)c2)CC1	nt	?	-12.8%
31	CCOC(=O)C1(CCOc2ccccc2)CCN(Cc2ccc(OC)c(COC)c2)CC1	nt	18.4µM*	-4.7%
32	CCOC(=O)C1(CCOc2ccccc2)CCN(Cc2ccc(OC)c(O)c2)CC1	nt	?	-32.7%

nr	miR-21 FLuc	TDP1 cell CPT
25	12.8%	23.1µM*
26	-12.1%	?
27	-0.4%	-11.5%
28	nt	?
29	3.4%	18.0%
30	6.4%	29.1µM*
31	25.4%	18.4µM*
32	25.8%	16.4µM*

Going on with the list.
nr	Molecule	TDP1 inh	DT40 TDP1 no CPT	uPA generation
33	CCOC(=O)C1(CCOC)CCN(Cc2cnc(-c3cccc(C)c3)nc2)CC1	nt	16.4µM*	-0.6%
34	CSC[C@H]1CN(c2ccc(Br)cc2)C(=O)[C@@H]1CC(=O)Nc1ccccc1	nt	?	nt
35	C/C(=N\NC(=O)CNC(=O)c1cccnc1)c1cccc(O)c1	nt	-5.7%	0.0%
36	COc1cccc(CN2CC(C(=O)NCCc3ccccc3C(F)(F)F)CCC2=O)c1 (stereo unspecified)	1.4%	5.5%	-4.9%
37	CCOC(=O)C1(CC2CC2)CCN(Cc2cnc(-c3ccccc3C)nc2)CC1	2.6%	18.4µM*	?
38	CCOC(=O)C1(CC2CC2)CCN(Cc2cc(Cl)c(O)c(OC)c2)CC1	2.4%	-29.3%	2.1%
39	COCCNC(=O)CN(C(=O)CCC(=O)Nc1ccccn1)c1ccc(OC)cc1	nt	7.1%	0.8%
40	O=C(Nc1ccccc1N1CCCCC1)c1ccc(Cl)cc1	nt	-26.2%	-6.2%

nr	miR-21 FLuc	TDP1 cell CPT
33	-10.4%	?
34	nt	-15.5%
35	0.2%	-7.1%
36	-7.6%	-28.8%
37	4.5%	14.6µM*
38	1.6%	6.1%
39	1.0%	7.5%
40	-28.9%	-14.0%

Three of the compounds above, screen by screen.
40) O=C(Nc1ccccc1N1CCCCC1)c1ccc(Cl)cc1
38) CCOC(=O)C1(CC2CC2)CCN(Cc2cc(Cl)c(O)c(OC)c2)CC1
37) CCOC(=O)C1(CC2CC2)CCN(Cc2cnc(-c3ccccc3C)nc2)CC1

| Assay by compound | 40 | 38 | 37 |
| --- | --- | --- | --- |
| TDP1 inh | nt | 2.4% | 2.6% |
| DT40 TDP1 no CPT | -26.2% | -29.3% | 18.4µM* |
| uPA generation | -6.2% | 2.1% | ? |
| miR-21 FLuc | -28.9% | 1.6% | 4.5% |
| TDP1 cell CPT | -14.0% | 6.1% | 14.6µM* |

The list continues.
nr	Molecule	TDP1 inh	DT40 TDP1 no CPT	uPA generation
41	O=C(Nc1cc2c(oc1=O)CCCC2=O)c1ccc(Cl)cc1	12.6µM*	9.6%	nt
42	COc1ccc(C(=O)Nc2cc3cc(Cl)ccc3oc2=O)cc1OC	-4.0%[12.3 µM]	2.91µM*	nt
43	Cc1ccc(C(=O)Nc2cc3cc(Cl)ccc3oc2=O)cc1	4.0%[12.3 µM]	1.46µM*	nt
44	Cc1nccc2oc(=O)c(NC(=O)c3ccc(Cl)cc3)cc12	-5.9%	-7.5%	0.2%
45	CCN1C(=NCc2cc(OC)c(OC)c(OC)c2)N[C@@H](c2cccc(F)c2)C(C(=O)OC)=C1C	nt	nt	nt
46	C#CCSc1[nH]c(=O)cc(C)c1C#N	-4.8%	-21.6%	-1.3%
47	O=C(NCCN1CCOCC1)C1CCN(Cc2ccccc2O)CC1	nt	-9.4%	1.8%
48	O=C(NCCN1CCOCC1)C1CCN(c2ncnc3c2sc2cccc(F)c23)CC1	-2.9%	20.6µM*	-3.4%
49	CCCCN(CC)CCCNC(=O)C1CCN(c2ncnc3c2sc2cccc(F)c23)CC1	5.3%	29.1µM*	nt
50	O=C(C1CCN(c2ncnc3c2sc2cccc(F)c23)CC1)N1CCOCC1	1.3%	29.1µM*	?

nr	miR-21 FLuc	TDP1 cell CPT
41	-18.5%	-20.3%
42	-11.7%	5.8µM*
43	-7.8%	1.16µM*
44	4.3%	-3.7%
45	5.4%	nt
46	-6.0%	26.0%
47	-5.1%	22.5%
48	-2.6%	11.6µM*
49	-26.2%	18.4µM*
50	-11.7%	11.6µM*
